Experimental data as given in ChEMBL document CHEMBL1811889, “Quinoline-4-methyl esters as human nonpancreatic secretory phospholipase A₂ inhibitors” (Bioorg Med Chem, 2011).

Target: T1, Phospholipase A2, membrane associated (Homo sapiens) (UniProt P14555)
T1 sequence (whole entry): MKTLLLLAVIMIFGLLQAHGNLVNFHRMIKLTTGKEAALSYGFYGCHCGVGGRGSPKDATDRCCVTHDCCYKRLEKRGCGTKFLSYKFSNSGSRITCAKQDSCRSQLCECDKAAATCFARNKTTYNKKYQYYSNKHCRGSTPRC
Settings: 10 uM

SMILES	inhibition [%]
COC(=O)c1cc(-c2ccc(OC)cc2)nc2ccc(C(F)(F)F)cc12	71
COC(=O)c1cc(Cc2ccccc2OC)nc2ccc(Cl)cc12	87
